Data taken from ChEMBL document CHEMBL4017513, “Structure-Activity Relationships of Potent, Targeted Covalent Inhibitors That Abolish Both the Transamidation and GTP Binding Activities of Human Tissue Transglutaminase” (J Med Chem, 2017).

Tests used:
[1] = biological target: T1, Protein-glutamine gamma-glutamyltransferase (Homo sapiens) (UniProt P21980); assay: Irreversible inhibition of human TG2 using AL5 as substrate by colorimetric assay
T1 sequence (whole entry): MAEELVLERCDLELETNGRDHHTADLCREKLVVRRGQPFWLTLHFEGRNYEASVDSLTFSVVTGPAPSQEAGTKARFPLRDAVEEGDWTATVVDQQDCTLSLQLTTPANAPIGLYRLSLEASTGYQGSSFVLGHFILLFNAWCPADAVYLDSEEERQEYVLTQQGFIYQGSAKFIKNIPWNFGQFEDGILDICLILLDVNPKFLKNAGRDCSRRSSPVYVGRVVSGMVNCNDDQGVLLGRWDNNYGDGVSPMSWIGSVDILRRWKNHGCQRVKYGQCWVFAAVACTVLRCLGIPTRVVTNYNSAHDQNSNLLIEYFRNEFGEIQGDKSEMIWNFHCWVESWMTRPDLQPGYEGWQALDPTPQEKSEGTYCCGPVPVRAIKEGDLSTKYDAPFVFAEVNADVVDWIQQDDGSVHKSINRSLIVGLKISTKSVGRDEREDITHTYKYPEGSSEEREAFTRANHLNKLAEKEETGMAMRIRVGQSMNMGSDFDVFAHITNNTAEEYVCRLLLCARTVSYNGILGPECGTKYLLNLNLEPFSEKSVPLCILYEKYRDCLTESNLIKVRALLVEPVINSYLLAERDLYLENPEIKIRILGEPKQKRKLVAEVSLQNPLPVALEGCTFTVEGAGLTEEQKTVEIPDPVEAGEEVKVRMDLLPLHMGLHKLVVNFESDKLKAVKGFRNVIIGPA

[2] = biological target: T1, Protein-glutamine gamma-glutamyltransferase (Homo sapiens); assay: Ratio of kinact to Ki for human TG2 by colorimetric assay
[3] = organism: Cavia porcellus; assay: Ratio of Kinact to Ki for guinea pig liver TG2
[4] = biological target: T2, Protein-glutamine gamma-glutamyltransferase K (Homo sapiens) (UniProt P22735); assay: Inactivation of human TG1 using AL5 as substrate by colorimetric assay
T2 sequence (whole entry): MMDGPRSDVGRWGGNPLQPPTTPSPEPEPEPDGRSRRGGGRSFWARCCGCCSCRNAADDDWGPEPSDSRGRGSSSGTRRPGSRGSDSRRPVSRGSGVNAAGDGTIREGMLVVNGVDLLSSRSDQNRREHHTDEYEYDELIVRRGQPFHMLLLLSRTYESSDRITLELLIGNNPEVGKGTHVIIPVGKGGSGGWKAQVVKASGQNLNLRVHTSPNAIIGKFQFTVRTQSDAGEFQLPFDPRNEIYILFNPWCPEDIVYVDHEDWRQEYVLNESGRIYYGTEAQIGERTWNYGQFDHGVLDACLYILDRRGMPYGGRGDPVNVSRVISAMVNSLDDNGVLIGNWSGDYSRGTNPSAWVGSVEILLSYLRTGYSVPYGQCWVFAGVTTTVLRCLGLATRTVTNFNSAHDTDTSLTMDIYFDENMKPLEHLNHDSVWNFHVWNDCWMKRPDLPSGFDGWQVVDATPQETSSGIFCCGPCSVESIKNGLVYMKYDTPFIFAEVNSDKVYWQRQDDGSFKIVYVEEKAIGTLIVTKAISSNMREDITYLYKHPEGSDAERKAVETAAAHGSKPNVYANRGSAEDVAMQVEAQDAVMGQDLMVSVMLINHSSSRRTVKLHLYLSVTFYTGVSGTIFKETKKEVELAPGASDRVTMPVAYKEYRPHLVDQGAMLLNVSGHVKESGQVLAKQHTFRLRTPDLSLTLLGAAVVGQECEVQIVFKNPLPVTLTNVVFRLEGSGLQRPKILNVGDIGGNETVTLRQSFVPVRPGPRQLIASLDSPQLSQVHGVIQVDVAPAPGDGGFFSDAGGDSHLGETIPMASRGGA

[5] = biological target: T3, Coagulation factor XIII A chain (Homo sapiens) (UniProt P00488); assay: Inactivation of human F13a assessed as rate constant of enzyme inhibition using FRET- quenched A101 as substrate by fluorescence assay
T3 sequence (whole entry): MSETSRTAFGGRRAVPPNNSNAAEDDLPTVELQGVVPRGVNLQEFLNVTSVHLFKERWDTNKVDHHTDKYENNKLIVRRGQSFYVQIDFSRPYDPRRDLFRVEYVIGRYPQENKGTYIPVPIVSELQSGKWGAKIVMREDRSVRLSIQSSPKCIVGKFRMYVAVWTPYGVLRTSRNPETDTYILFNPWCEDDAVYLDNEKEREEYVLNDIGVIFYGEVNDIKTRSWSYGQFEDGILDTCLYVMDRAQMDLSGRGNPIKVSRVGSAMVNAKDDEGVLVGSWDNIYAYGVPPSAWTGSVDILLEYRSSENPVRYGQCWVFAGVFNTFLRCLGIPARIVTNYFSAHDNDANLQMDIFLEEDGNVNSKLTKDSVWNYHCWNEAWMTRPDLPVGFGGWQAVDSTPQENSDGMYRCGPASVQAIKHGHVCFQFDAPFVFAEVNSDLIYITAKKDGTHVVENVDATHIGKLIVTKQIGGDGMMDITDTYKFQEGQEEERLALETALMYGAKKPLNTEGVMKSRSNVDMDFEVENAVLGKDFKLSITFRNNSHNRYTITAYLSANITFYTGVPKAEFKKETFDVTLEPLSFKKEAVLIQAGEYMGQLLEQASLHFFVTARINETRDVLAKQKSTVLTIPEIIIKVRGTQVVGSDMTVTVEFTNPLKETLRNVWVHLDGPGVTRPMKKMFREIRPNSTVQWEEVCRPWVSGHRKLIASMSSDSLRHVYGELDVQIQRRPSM

[6] = biological target: T4, Protein-glutamine gamma-glutamyltransferase E (Homo sapiens) (UniProt Q08188); assay: Inactivation of activated human TG3 assessed as rate constant of enzyme inactivation using FRET- quenched A101 as substrate by fluorescence assay
T4 sequence (whole entry): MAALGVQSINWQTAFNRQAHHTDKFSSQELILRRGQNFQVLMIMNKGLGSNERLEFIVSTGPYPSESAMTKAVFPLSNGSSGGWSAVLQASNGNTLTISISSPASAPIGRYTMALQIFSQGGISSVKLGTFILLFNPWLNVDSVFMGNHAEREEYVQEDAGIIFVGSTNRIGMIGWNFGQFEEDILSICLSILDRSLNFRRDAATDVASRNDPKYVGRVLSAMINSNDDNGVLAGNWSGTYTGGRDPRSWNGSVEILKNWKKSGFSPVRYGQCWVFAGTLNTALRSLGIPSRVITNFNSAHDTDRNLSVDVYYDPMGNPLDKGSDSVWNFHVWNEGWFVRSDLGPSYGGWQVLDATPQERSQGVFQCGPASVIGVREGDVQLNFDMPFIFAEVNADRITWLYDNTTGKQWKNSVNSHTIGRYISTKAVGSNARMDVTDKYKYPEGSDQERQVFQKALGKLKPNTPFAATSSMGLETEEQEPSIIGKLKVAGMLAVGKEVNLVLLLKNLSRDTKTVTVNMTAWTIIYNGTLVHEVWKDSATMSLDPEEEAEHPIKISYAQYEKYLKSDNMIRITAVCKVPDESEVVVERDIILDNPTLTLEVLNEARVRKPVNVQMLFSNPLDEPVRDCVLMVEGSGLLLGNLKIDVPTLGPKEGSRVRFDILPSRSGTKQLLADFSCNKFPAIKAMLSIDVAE

[7] = organism: Homo sapiens; assay: Selectivity ratio of Kobs for human TG2 to Kobs for activated human TG3

Compound | Kinact [1] [min⁻¹] | Ratio [2] [×10³ /M/min] | Ratio [3] [×10⁶ /M/min] | K [4] [×10⁻³ /min] | K [5] [×10⁻³ /min] | K [6] [×10⁻³ /min] | Selectivity ratio [7]
C=CC(=O)NCCCC[C@H](NC(=O)OCc1ccccc1)C(=O)N1CCN(C(=O)c2cccc3ccccc23)CC1 | 0.9 | 101 |  |  |  |  | 
C=CC(=O)NCCCC[C@H](NC(=O)OCc1ccccc1)C(=O)O | 0.796 | 13.2 | 1.3 |  |  |  | 
C=CC(=O)NCCCC[C@H](NC(=O)OCc1ccccc1)C(=O)N1CCN(S(=O)(=O)c2cccc3c(N(C)C)cccc23)CC1 | 1.4 | 107 |  | 8.27 | 4.08 | 0.65 | 390
